Experimental data reported in US20230092679A1, “MCL-1 INHIBITOR ANTIBODY-DRUG CONJUGATES AND METHODS OF USE” (NOVARTIS AG, priority 2019, published 2023).

System: NCI-H929 multiple myeloma cell line
Test: In vitro cytotoxicity, Microculture Tetrazolium Assay (MTT)
Assay type: cell-based
Details: read-out: IC50 (M) MTT H929; NCI-H929, 48 hours

COc1ccc(-c2nccc(COc3ccccc3C[C@@H](Oc3ncnc4sc(-c5ccc(F)cc5)c(-c5ccc(OCCN6CCN(C)CC6)c(Cl)c5C)c34)C(=O)O)n2)cc1
IC50: 7e-09 M
